Series [1] concerns Caco-2 cells. Briefly: Caco2 permeability test. The series is classed as in vitro ADME. As to conditions: Caco2, compared with the trifluoroacetate of LNP023, in words. The method, then:
The experiment used a monolayer of Caco-2 cells incubated in triplicate in a 96-well Transwell plate. […] Acetonitrile containing internal standard was then added to precipitate the protein. […] The integrity of the cell monolayer after 2 h of incubation was assessed by leakage of Lucifer Yellow.
Background: Caco-2 cells form a polarised layer with tight junctions and transporters.

Chains of the proteins cited; added tags and fusions are not shown. Residues count along the entry.
UniProt P00751, 260-764 limits assumed: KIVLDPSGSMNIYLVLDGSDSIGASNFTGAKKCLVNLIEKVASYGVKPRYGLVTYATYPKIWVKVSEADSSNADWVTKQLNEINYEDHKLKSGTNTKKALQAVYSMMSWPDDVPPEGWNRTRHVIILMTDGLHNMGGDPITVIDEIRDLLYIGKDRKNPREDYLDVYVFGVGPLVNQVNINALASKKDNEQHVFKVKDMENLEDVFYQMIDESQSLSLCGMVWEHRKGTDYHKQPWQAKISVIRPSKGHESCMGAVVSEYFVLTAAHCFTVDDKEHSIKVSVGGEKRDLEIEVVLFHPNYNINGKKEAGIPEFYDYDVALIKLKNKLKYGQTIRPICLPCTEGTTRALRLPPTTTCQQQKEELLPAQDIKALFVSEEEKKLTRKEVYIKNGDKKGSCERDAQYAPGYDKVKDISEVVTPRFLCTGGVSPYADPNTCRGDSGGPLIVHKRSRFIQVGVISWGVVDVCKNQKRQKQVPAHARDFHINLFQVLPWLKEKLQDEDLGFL

Series [2] concerns the target FB (Homo sapiens, UniProt P00751). Briefly: biochemical.

pIC50: −log10 of the molar value.

For the compound `COc1cc(C)c2[nH]ccc2c1CN1CC[C@@H](C2CC2)C[C@H]1c1ccc(C(=O)O)cc1` [Trifluoroacetate of compound 5 (diastereomer 1), 4-((2S)-4-cyclopropyl-1-((5-methoxy-7-methyl-1H-indol-4-yl)methyl)piperidin-2-yl)benzoic acid], in series [1], the efflux ratio entry was “lower”. Also, the pIC50 – broadly, the IC50 on a negative log10 scale, so that one unit is a factor of ten – in series [2] is greater than 6.30.

As for `[2H]C([2H])([2H])Oc1cc(C)c2[nH]ccc2c1CN1CC[C@H](C2CC2)C[C@H]1c1ccc(C(=O)O)cc1` [Trifluoroacetate of compound 7 (diastereomer 1), 4-((2S)-4-cyclopropyl-1-((5-(methoxy-d3)-7-methyl-1H-indol-4-yl)methyl)piperidin-2-yl)benzoic acid], the efflux ratio result in series [1] is given as “lower”.

The values are drawn from patent publication US20260035385A1, “BENZO NITROGEN-CONTAINING HETEROAROMATIC RING DERIVATIVE AND USE THEREOF IN MEDICINE” (Xizang Haisco Pharmaceutical Co., Ltd., priority 2021, published 2026).
